According to ChEMBL document CHEMBL6087471, “A Collection of Novel Antitumor Agents That Regulate Lipid Metabolism in the Tumor Microenvironment” (J Med Chem, 2025):

Target: Autotaxin (Homo sapiens, UniProt Q13822)

Question: How did the IC50 turn out when `CCCCCCCC/C=C\CCCCCCCC(=O)OCC(O)COP(=O)(O)O` (stereo unspecified) was run?
Answer: 20 nM
